# Measured affinities in a library of Ab-14 light chain variants

All variants were tested on one target, the spike HR2 peptide PDVDLGDISGINAS (SARS-CoV-2).

The variants keep the heavy chain, the linker and the frameworks of Ab-14 (scFv order VH, a (GGGGS)3 linker, VL).
VH: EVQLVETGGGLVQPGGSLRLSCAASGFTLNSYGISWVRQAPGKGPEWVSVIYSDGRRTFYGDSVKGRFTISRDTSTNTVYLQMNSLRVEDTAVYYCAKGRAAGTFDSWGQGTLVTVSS
VL: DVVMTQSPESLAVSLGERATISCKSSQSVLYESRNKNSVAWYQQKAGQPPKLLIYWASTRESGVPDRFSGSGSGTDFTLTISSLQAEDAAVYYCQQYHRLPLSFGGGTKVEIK

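In library AAYL50, one, two or three CDR residues were substituted; doubles and triples were drawn at random. Affinity was read by AlphaSeq, a pooled yeast mating assay with surface-displayed partners. The frequency of each diploid, read from paired DNA barcodes, reflects how well the two displayed proteins bind. The ratio of observed to expected reads was calibrated, replicate by replicate, on BCL2-family standards whose Kd was known from biolayer interferometry. The assay was run in three technical replicates.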

Variants are written as CDR1, CDR2 and CDR3 of the light chain (limits as in the source). Parent: KSSQSVLYESRNKNSVA, WASTRES, QQYHRLPLS. Numbers give log10(Kd / nM), so 0 is 1 nM and 3 is 1 µM. Smaller is tighter. Where no diploid with the target was found in that replicate, the entry reads "nd": below detection, most likely a poor binder, though not proof of it.

| CDR-L1 | CDR-L2 | CDR-L3 | replicates, log10 nM | signal with controls |
|---|---|---|---|---|
| KSSQSVLYESRNSNSVA | HASTRES | QQYHRSPLS | 4.29 3.81 3.31 | 1 of 9 (3.52) |
| KSSQSVFNESRNKNSVA | WASMRES | QQYHRLPLS | 0.53 0.81 0.67 | 1 of 9 (4.55) |
| KSSQSMLYESRIKNSVA | WASTRES | QQYERLPLS | 0.96 1.10 1.24 | 0 of 9 |
| KSSQSVVYEERNKNSVA | WASTRER | QQYHRLPLS | 0.97 1.06 1.19 | 1 of 9 (3.53) |
| KSSQCVLYESRNKHSVA | AASTRES | QQYHRLPLS | 0.81 1.00 1.03 | 2 of 9 (5.50) |
| KNSQSVLYESRNKNSVA | WASTRES | QQYHRHPLS | nd nd 5.18 | 1 of 9 (3.11) |
| KSSQSVLYESRNKNSVA | WASNRES | VQYHPLPLS | nd nd nd | 0 of 9 |
| KSSQSVLGESRNKNSSA | WASTRES | QQYHMLPLS | 3.84 nd nd | 2 of 9 (3.80) |
| KSSQSVLYESRGKNNVA | WASQRES | QQYHRLPLS | 0.75 1.00 1.10 | 0 of 9 |
| KSSQSVLYESRNKNSVA | WASTREV | QQDHRDPLS | 1.80 1.85 1.78 | 4 of 9 (4.40) |
| KSSQSVAYESRNKNSVA | WASCRES | QQYHALPLS | nd nd nd | 0 of 9 |
| KSSQSWLYESHNKNSVA | WASTRES | QQYHTLPLS | 0.51 0.86 0.74 | 0 of 9 |
| ASSQVVLYESRNKNSVA | WASTRES | QQYVRLPLS | 2.39 2.01 3.05 | 1 of 9 (3.80) |
| KSSQSVLYFSRNKNSEA | WASTRES | QQYHRLPLM | 4.62 3.70 3.82 | 6 of 9 (4.51) |
| KSSQSVLQESWNKNSVA | WASTRES | QQYHRLPLS | 0.52 0.70 0.22 | 0 of 9 |
| KSFQSVLYESRNKNSVA | WASTRES | QQYHRCLLS | 1.60 1.59 1.49 | 1 of 9 (4.88) |
| KSSQSKLYESRNKNSVA | WASTREW | QQYHNLPLS | 1.97 1.98 2.04 | 0 of 9 |
| KSSQSVLYESRNKNSVS | WASTRKS | AQYHRLPLS | nd nd nd | 0 of 9 |
| KSSQSVLYESRNKNSVY | EAETRES | QQYHRLPLS | nd nd nd | 1 of 9 (3.99) |

The remaining entries, values ahead:

| replicates, log10 nM | signal with controls | CDR-L1 | CDR-L2 | CDR-L3 |
|---|---|---|---|---|
| nd 2.20 nd | 0 of 9 | KSSQSVFYESRGKNSVA | WASTRES | QQYHRLPLS |
| nd nd nd | 0 of 9 | KSSQSVHYEIRNKNSVA | WASTRES | QQYHRNPLS |
| 1.02 1.39 0.76 | 0 of 9 | KSSQSVLYESRNRNSVA | WASTRES | QQYAYLPLS |
| nd 4.91 nd | 2 of 9 (3.42) | KELQSVLYESRNKNSVA | WASTRES | QQPHRLPLS |
| 1.94 2.55 2.49 | 2 of 9 (4.63) | KSSQSVLYESCTKNSVA | WASTRES | QQYGRLPLS |
| nd nd nd | 3 of 9 (3.82) | KSSQSVLYESRNKNSVW | WASTREG | QQYHRLPLS |
| nd nd nd | 0 of 9 | KSSQSVLYESRAKNSYA | WASTRES | QQYHRLPAS |
| nd 3.84 nd | 6 of 9 (4.81) | KSSQSVLYESRNKNGVA | WYSTRES | QQWHRLPLS |
| -0.22 0.13 -0.12 | 4 of 9 (5.06) | KSSQSVLYDMRNKNSVA | SASTRES | QQYHRLPLS |
| nd nd nd | 0 of 9 | KSSQSVLYESRNKNSVA | WASSRES | QQYFRSPLS |
| nd nd nd | 4 of 9 (4.27) | KSSQSALYESKNKNSVA | WASTRES | QQRHRLPLS |
| nd nd nd | 0 of 9 | KSSQSVLYESQNKNSVD | WASTRES | QQYHRLPLS |
| nd nd nd | 2 of 9 (3.98) | KSSQSVLYESRNKKSVA | WASTRTS | QQYHRLPYS |
| nd nd nd | 1 of 9 (2.40) | KMSQSVEYESRNKNSVW | WASTRES | QQYHRLPLS |
| 3.69 3.69 2.92 | 0 of 9 | KKSQLVLYESRNKNSVA | WASTRES | QYYHRLPLS |
| nd nd nd | 1 of 9 (3.65) | KSLQSVLYESRNKNSVA | WASTRES | WQYHRLSLS |
| 2.24 2.08 2.26 | 3 of 9 (3.88) | KSSQPVLYESRNKNSVA | WASTQES | QQYHRLPSS |
| nd nd nd | 0 of 9 | KSDQSVLYESRNKNSVA | WASTFES | QWYHRLPLS |
| nd nd nd | 4 of 9 (3.58) | KSSQSGLYESNNKNSVA | WASTRES | QQYHRKPLS |
| nd 2.99 nd | 3 of 9 (4.38) | KSSQSVLYESRNKNSVN | WASTREY | QQYHRLPLR |

The 6 strongest on average among those seen in every replicate, once more:

| CDR-L1 | CDR-L2 | CDR-L3 | replicates, log10 nM | signal with controls |
|---|---|---|---|---|
| KSSQSVLYDMRNKNSVA | SASTRES | QQYHRLPLS | -0.22 0.13 -0.12 | 4 of 9 (5.06) |
| KSSQSVLQESWNKNSVA | WASTRES | QQYHRLPLS | 0.52 0.70 0.22 | 0 of 9 |
| KSSQSVFNESRNKNSVA | WASMRES | QQYHRLPLS | 0.53 0.81 0.67 | 1 of 9 (4.55) |
| KSSQSWLYESHNKNSVA | WASTRES | QQYHTLPLS | 0.51 0.86 0.74 | 0 of 9 |
| KSSQCVLYESRNKHSVA | AASTRES | QQYHRLPLS | 0.81 1.00 1.03 | 2 of 9 (5.50) |
| KSSQSVLYESRGKNNVA | WASQRES | QQYHRLPLS | 0.75 1.00 1.10 | 0 of 9 |

Parent in this assay: reference entry 0.65, copy in this library 1.68. As a blank, each scFv also met three strains without target: over library AAYL50, 18% of these pairings were detected, typically at 4.19 and seldom below 2.99. The control count says in how many pairings with the empty strains this scFv gave a signal, with their mean in brackets.

Reference: Engelhart et al. 2022, doi:10.1038/s41597-022-01779-4. File: FLAb, binding data.